The values that follow come from patent publication US20230052517A1, “ELECTROCHEMICAL SENSING METHODS AND APPARATUS FOR DETERMINING DRUG UPTAKE AND RETENTION IN CELLS” (priority 2020, published 2023).

This data set has as its system Pseudomonas bacteria (PAO1 and PA262). Particulars: strains drop-casted individually at macro-electrodes. As for the experimental part:
After 25 min of incubation, the bacteria suspension is centrifuged, cells are resuspended in PBS and drop-casted onto a 3-mm glassy carbon macroelectrode (see FIG. 1D). Other macroelectrode materials, such as gold, platinum, etc. could be employed in the same way. The electrode is then placed in a KCl solution and DPV is performed at a potential rage of zero to 1.0V. This potential range would be adjusted depending on the drug of interest.
When the electrode is placed in the KCl solution, various time intervals were applied before driving the oxidation reaction at the electrode.

As for `O=C(O)c1cn(C2CC2)c2cc(N3CCNCC3)c(F)cc2c1=O` [ciprofloxacin], the “export current, resistant PA262 versus susceptible PAO1” value is given as “the resistant strain appears to result in a higher current than the susceptible strain”.
